In the experiment the target is hMC3R (Homo sapiens, UniProt P41968).

Protein sequences, listed by entry. Tags and fused reporters are not part of them. Lines headed by an entry give the natural chain unless they say otherwise; changes in a name come on top.
UniProt P41968: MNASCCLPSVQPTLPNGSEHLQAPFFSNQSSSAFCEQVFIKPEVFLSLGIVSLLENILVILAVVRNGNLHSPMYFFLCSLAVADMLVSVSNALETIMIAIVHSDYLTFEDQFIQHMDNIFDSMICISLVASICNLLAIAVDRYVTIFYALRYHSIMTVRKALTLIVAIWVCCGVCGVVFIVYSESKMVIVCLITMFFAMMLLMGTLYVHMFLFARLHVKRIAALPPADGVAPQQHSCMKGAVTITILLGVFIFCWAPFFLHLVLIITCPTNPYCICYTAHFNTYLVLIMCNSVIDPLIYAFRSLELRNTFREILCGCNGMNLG

For orientation: IC50 means the concentration that inhibits the measured activity by half. Lower therefore signals higher potency. With MTII (peptide), the IC50 was determined as 4.58 nM.

Values taken from patent US20030032791A1, “Novel melanocortin-4 receptor sequences and screening assays to identify compounds useful in regulating animal appetite and metabolic rate” (priority 2000, published 2003).
